Assay results taken from PubChem BioAssay AID587 (National Center for Advancing Translational Sciences (NCATS), 2007).
The entries are a selection whose mix differs from that of the whole data set. Results filed as inconclusive are left out. Activity calls are given as the source filed them. Rule as the data show it: active = max dye-equivalent concentration above about 10 nM; inconclusive = between about 1.1 nM and that limit; inactive = weaker than that.

Experiment: qHTS Assay for Spectroscopic Profiling in Texas Red Spectral Region
Conditions: Compound fluorescence, Texas Red channel, 547/618 nm
From the text: NIH Molecular Libraries Screening Centers Network [MLSCN] NIH Chemical Genomics Center [NCGC] […] Occasionally, the artifactual effect may originate from the compound#s own spectral or other biophysical properties which generally tend to track its assay concentration. Pre-screening/profiling the library with respect to the compounds# spectral properties should help one exclude false positives early on. While the most informative fluorescent profiling data set is obtained by performing a full excitation and emission scan of each well by using a monochromator-based plate reader, such an approach is practical only on a very limited scale as scanning each well requires long time. An alternative approach, applied here, is to perform plate reader scans using selected excitation and emission wavelength pairs to generate a multidimensional relational database that correlates compound concentration and the respective relative fluorescence intensity at a given wavelength set. A standard curve of Texas Red (TR) present on each plate as six-point concentration series, was used to compute a normalized fluorescence response, termed dye-equivalent concentration, for each compound at each concentration.
NCGC Assay Protocol Summary: Buffer: 100 mM Tris buffer, pH 8.0 Dye standard plate: The wells in columns 1 through 4 of a Kalypsys polypropylene 1536-well compound plate were filled with standard solutions of fluorophore corresponding to the spectral region of interest. Solutions of TR were placed in the following wells: U1, V1: 3 mM, U2, V2: 300 uM, U3, V3: 30 uM, U4, V4: zero (DMSO), W1, X1: 3 uM, W2, X2: 900 nM, W3, X3: 300 nM, W4, X4: zero (DMSO). Assay Steps: Six uL of buffer were dispensed to 1536-well Greiner black plates. Compounds and dye standards (23 nL) were transferred via Kalypsys PinTool. The plates were incubated for 15 min at room temperature, and then read on ViewLux (Perkin-Elmer) High-throughput CCD imager using 547 nm and 618 nm excitation and emission filter set. Keywords: NIH Roadmap, MLSCN, MLI, MLSMR, qHTS, NCGC, Texas Red, Fluorescent Profiling.

Row | SMILES | outcome
1 | O=C(OC1CN2CCC1CC2)C1c2ccccc2Oc2ccccc21 (stereo not drawn) | inactive
2 | O=C(O)C1(Nc2ccccc2)CCN(Cc2ccccc2)CC1 | inactive
3 | N/C(=N\O)c1c(N)no[n+]1[O-] | inactive
